Experimental data: patent publication US9974867B2, “Cytotoxic benzodiazepine derivatives” (priority 2014, dated 2018)
“Also recorded” adds a separate entry of the source. Where two headings read alike, the source gives them in different places.

Tests used:
[1] = Pharmacokinetics of single dose in CD-1 mice; format: in vivo; conditions: single IV 2.5 mg/kg based on Ab, total Ab and intact conjugate by ELISA
Protocol: Female CD-1 mice, 7 weeks old, were received from Charles River Laboratories. […] Each mouse received a dose of 2.5 mg/kg based on Ab. The dose and injected volume were individualized on the basis of the body weight of each mouse. Injections were carried out using a 1.0 mL syringe fitted with a 27 gauge, ½ inch needle. […] At each time point (from 0 to 21 days), blood was collected from all three mice in one group. Groups were bled in turn; so that the mice in the set were not bled more than two times in a 24-hour period. At the final time point, 28 days post-administration, all mice were included for sample collection. Blood samples were centrifuged to separate the plasma. 30 μl plasma was transferred to individual labeled microcentrifuge tubes for each sample and time point, and then stored frozen at −80° C. to allow subsequent analysis by ELISA to determine concentrations of total Ab (both unconjugated Ab and intact ADC) and intact conjugate.

[2] = tested on: Ishikawa endometrial xenografts; test: Antitumor activity of single dose against Ishikawa endometrial xenografts (Example 14); format: in vivo, SCID mice
Protocol: (§1) Female CB.17 SCID mice, 6 weeks old, were received from Charles River Laboratories. One cohort of mice were inoculated with 1×10^7 NCI-H2110 tumor cells suspended in 0.1 ml 50% matrigel/serum free medium by subcutaneous injection in the right flank. The second cohort of mice were inoculated with 1×10^7 Hec-1b tumor cells suspended in 0.1 ml serum free medium by subcutaneous injection in the right flank. The third cohort of mice were inoculated with 1×10^7 Ishikawa tumor cells suspended in 0.1 ml 50% matrigel/serum free medium by subcutaneous injection in the right flank. When tumor volumes reached approximately 100 mm^3 (NCI-H2110 on day 7, Hec-1b on day 7, and Ishikawa on day 17 post inoculation), animals were randomized based on tumor volume into groups of 6 mice each.
(§2) For all experiments, tumor size was measured twice to three times weekly in three dimensions using a caliper. The tumor volume was expressed in mm^3 using the formula V=Length×Width×Height×½. A mouse was considered to have a partial regression (PR) when tumor volume was reduced by 50% or greater, complete tumor regression (CR) when no palpable tumor could be detected. Tumor volume was determined by StudyLog software.
(§3) Tumor growth inhibition (T/C Value) was determined using the following formula: T/C (%)=Median tumor volume of the treated/Median tumor volume of the control×100.
(§4) Tumor volume was determined simultaneously for treated (T) and the vehicle control (C) groups when tumor volume of the vehicle control reached predetermined size of 1000 mm^3. The daily median tumor volume of each treated group was determined, including tumor-free mice (0 mm^3). According to NCI standards, a T/C≤42% is the minimum level of anti-tumor activity. A T/C<10% is considered a high anti-tumor activity level.

[3] = tested on: KB (cervical cancer); test: WST-8-based in vitro cytotoxicity assay (another experiment), KB; format: cell-based
Protocol: (§5) In another experiment, the ability of the conjugate to inhibit cell growth was measured using a WST-8-based in vitro cytotoxicity assay. Cells in 96-well plates (typically, 1×10^3 per well) were treated with the conjugate at various concentrations in an appropriate cell culture medium with a total volume of 0.2 ml. Control wells containing cells and the medium but lacking test compounds, and wells containing medium only, were included in each assay plate. The plates were incubated for 4 to 6 days at 37° C. in a humidified atmosphere containing 6% CO2. WST-8 reagent (10%, volume/volume; Dojindo Molecular Technologies) was then added to the wells, and the plates were incubated at 37° C. for 2 to 6 hours depending on a cell line. Then, the absorbance was measured on a plate reader spectrophotometer in the dual-wavelength mode 450 nm/620 nm, and the absorbance at the 620 nm (nonspecific light scattering by cells) was subtracted. The resulting OD450 values were utilized to calculate apparent surviving fractions of cells using GraphPad Prism v4 (GraphPad software, San Diego, Calif.). The apparent surviving fraction of the cells in each well was calculated by first correcting for the medium background absorbance and then dividing each value by the average of the values in the control wells (non-treated cells). Dose response curves were generated by non-linear regression using a sigmoidal curve fit with variable slope in Graph Pad Prism. IC50 (inhibitory concentration 50%) was generated by the software.

[4] = tested on: NCI-H2110 NSCLC xenografts; test: Antitumor activity of single dose against NCI-H2110 NSCLC xenografts (Example 14); format: in vivo, SCID mice
Protocol: as §1, §2, §3, §4

[5] = tested on: NCI-H2110 NSCLC xenografts; test: Antitumor activity of single dose against NCI-H2110 NSCLC xenografts (Example 10); format: in vivo, SCID mice
Protocol: Female CB.17 SCID mice, 6 weeks old, were received from Charles River Laboratories. Mice were inoculated with 1×10^7 NCI-H2110 tumor cells suspended in 0.1 ml 50% matrigel/serum free medium by subcutaneous injection in the right flank. When tumor volumes reached approximately 100 mm3 (day 7 post inoculation), animals were randomized based on tumor volume into 4 groups of 6 mice each.
Tumor size was measured twice to three times weekly in three dimensions using a caliper. The tumor volume was expressed in mm3 using the formula V=Length×Width×Height×½. A mouse was considered to have a partial regression (PR) when tumor volume was reduced by 50% or greater, complete tumor regression (CR) when no palpable tumor could be detected. Tumor volume was determined by StudyLog software.
as §3
Tumor volume was determined simultaneously for treated (T) and the vehicle control (C) groups when tumor volume of the vehicle control reached predetermined size of 1000 mm3 The daily median tumor volume of each treated group was determined, including tumor-free mice (0 mm3) According to NCI standards, a T/C≤42% is the minimum level of anti-tumor activity. A T/C<10% is considered a high anti-tumor activity level.

[6] = tested on: 300.19 cells expressing recombinant FOLR1 (FR1#14) mixed with parental cells; test: Bystander killing activity (Cell Titer Glo); format: cell-based, mouse; conditions: 1 e-10 M and 4 e-10 M, 4 days
Protocol: Both 300.19 cells (mouse) expressing recombinant FOLR1(FR1#14) or no expression vector (parental) were counted on a hemacytometer. 50 μl/ml of 1000 FR1#14 cells/well were added to wells containing the conjugate or media only, 50 μl/ml of 2000 parental cells/well were added to wells containing the conjugate or media only and both FR1#14 and parental cells were added together to wells containing ADC or media only. All plates were incubated in a 37° C. incubator with 5% CO2 for 4 days. Total volume was 150 μl/well. After incubation, cell viability was analyzed by addition of 75 μl/well Cell Titer Glo (Promega) and allowed to develop for 45 min Luminescence was read on a luminometer and background in wells containing media only was subtracted from all values. A bar graph of the average of each cell treatment was graphed using Graph Pad Prism.

[7] = tested on: Hec-1b endometrial xenografts; test: Antitumor activity of single dose against Hec-1b endometrial xenografts (Example 14); format: in vivo, SCID mice
Protocol: as §1, §2, §3, §4

[8] = tested on: Ishikawa (endometrial cancer); test: WST-8-based in vitro cytotoxicity assay (another experiment), Ishikawa; format: cell-based
Protocol: as §5

[9] = tested on: NCI-H2110 NSCLC xenografts; test: Antitumor activity of single dose against NCI-H2110 NSCLC xenografts (Example 4); format: in vivo, SCID mice
Protocol: Female CB.17 SCID mice, 6 weeks old, were received from Charles River Laboratories. Mice were inoculated with 1×10^7 NCI-H2110 tumor cells suspended in 0.1 ml 50% matrigel/serum free medium by subcutaneous injection in the right flank. When tumor volumes reached approximately 100 mm^3 (day 7 post inoculation), animals were randomized based on tumor volume into 3 groups of 6 mice each.
Tumor size was measured twice to three times weekly in three dimensions using a caliper. The tumor volume was expressed in mm^3 using the formula V=Length×Width×Height×½. A mouse was considered to have a partial regression (PR) when tumor volume was reduced by 50% or greater, complete tumor regression (CR) when no palpable tumor could be detected. Tumor volume was determined by StudyLog software. Tumor growth inhibition (T/C Value) was determined using the following formula: T/C (%)=Median tumor volume of the treated/Median tumor volume of the control×100.
as §4

[10] = tested on: KB cells; test: Cytotoxicity assay (WST-8, 5 days), KB; format: cell-based
Protocol: (§6) KB cells (buccal epithelial tumor), grown in EMEM (ATCC) supplemented with heat-inactived 10% FBS (Life Technologies) and 0.1 mg/ml gentamycin (Life Technologies), were washed once in PBS and removed with 0.05% trypsin-EDTA (Life Technologies). Other cells tested were NCI-H2110 (NSCLC) and T47D (breat epthelial) grown in RPMI-1640 (LifeTechnologies) supplemented with heat-inactived 10% FBS (Life Technologies) and 0.1 mg/ml gentamycin (Life Technologies). T47D media also was supplemented with 0.2 IU/ml bovine insulin. All cells were resuspended in growth media (see above) to neutralize trypsin and counted using a hemacytometer. 100 μl/ml of 1000 KB cells/well or 2000 T47D and NCI-H2110 cells/well were added to wells containing ADC or media only and incubated in a 37° C. incubator with 5% CO2 for 5 days with and without 1 μM blocking anti-FOLR1 antibody (M9346A). Total volume is 200 μl/well. The starting concentration of each conjugate on KB cells was 3.5e-9 M and for T47D and NCI-H2110 cells, the starting concentration of each conjugate was 3.5e-8 M. After incubation, cell viability was analyzed by addition of 20 μl/well WST-8 (Dojindo) and allowed to develop for 2 hr. Absorbance was read on a plate reader at 450 and 620 nm. Absorbances at 620 nm were subtracted from absorbances at 450 nm. Background in wells containing media only was further subtracted from corrected absorbances and surviving fraction (SF) of untreated cells was calculated in Excel. An XY graph of ADC concentration (M) vs. SF was created using Graph Pad Prism.

[11] = tested on: NCI-H2110 cells; test: Cytotoxicity assay (WST-8, 5 days), NCI-H2110; format: cell-based
Protocol: as §6

[12] = tested on: NCI-H2110 (non-small cell lung carcinoma); test: WST-8-based in vitro cytotoxicity assay (another experiment), NCI-H2110; format: cell-based
Protocol: as §5

[13] = single IV 10 μg/kg based on drug
[14] = single IV 30 μg/kg based on drug
[15] = single IV 3 μg/kg based on drug
[16] = single IV 5 μg/kg based on drug
[17] = single IV 5 μg/kg based on compound 1d

B1: huMOV19-sulfo-SPDB-1d (conjugate, chains of the INN, looked up)
heavy: QVQLVQSGAEVVKPGASVKISCKASGYTFTGYFMNWVKQSPGQSLEWIGRIHPYDGDTFYNQKFQGKATLTVDKSSNTAHMELLSLTSEDFAVYYCTRYDGSRAMDYWGQGTTVTVSSASTKGPSVFPLAPSSKSTSGGTAALGCLVKDYFPEPVTVSWNSGALTSGVHTFPAVLQSSGLYSLSSVVTVPSSSLGTQTYICNVNHKPSNTKVDKKV[human IgG1 Fc cut from this listing]
light: DIVLTQSPLSLAVSLGQPAIISCKASQSVSFAGTSLMHWYHQKPGQQPRLLIYRASNLEAGVPDRFSGSGSKTDFTLTISPVEAEDAATYYCQQSREYPYTFGGGTKLEIKRTVAAPSVFIFPPSDEQLKSGTASVVCLLNNFYPREAKVQWKVDNALQSGNSQESVTEQDSKDSTYSLSSTLTLSKADYEKHKVYACEVTHQGLSSPVTKSFNRGEC
modifications: sulfo-SPDB linker payload 1d
- release of benzodiazepine compound from conjugate in plasma [1]: slow time-dependent release of benzodiazepine compound
- T/C [2, 13]: 23%
- anti-tumor activity level [2, 13]: active
- T/C [2, 14]: 11%
- anti-tumor activity level [2, 14]: active
- activity against the cell line [3]: active
- IC50 ([3]; + unmodified huMOV19 (1 μM)): 1 nM
- IC50 ([3]; conjugate alone): 0.01 nM
- anti-tumor activity level ([4]; single IV 1 μg/kg based on drug): inactive
- T/C [4, 15]: 12%
- anti-tumor activity level [4, 15]: active
- T/C [4, 16]: 4%
- anti-tumor activity level [4, 16]: highly active
- complete regressions (CRs) [4, 16]: 3/6
- partial regressions (PRs) [4, 16]: 6/6
- anti-tumor activity level ([5]; single IV 3 μg/kg based on compound 1d): active
- anti-tumor activity level [5, 17]: highly active
- bystander killing of neighboring antigen-negative cells [6]: strong bystander killing activity; also recorded: strong cytotoxic effect on the neighboring antigen-negative cells
- T/C [7, 13]: 22%
- anti-tumor activity level [7, 13]: active
- T/C [7, 14]: 13%
- anti-tumor activity level [7, 14]: active
- complete regressions (CRs) [7, 14]: ⅙
- partial regressions (PRs) [7, 14]: ⅙
- activity against the cell line [8]: active
- IC50 ([8]; + unmodified huMOV19 (1 μM)): 0.4 nM
- IC50 ([8]; conjugate alone): 0.04 nM
- lowest dose at which activity was observed ([9]; FIG. 2): 5 µg/kg
- tumor regression ([9]; multiple doses, FIG. 2): significant tumor regression
- anti-tumor activity level [9, 17]: highly active
- anti-tumor activity level ([9]; single IV 25 μg/kg based on compound 1d): highly active
- cytotoxic potency ([10]; KB cells): highly potent
- IC50 ([10]; with 1 μM blocking anti-FOLR1 antibody (M9346A), read-out: IC50 KB +Block): 0.6 nM
- IC50 ([10]; without blocking antibody, read-out: IC50 KB −Block): 0.008 nM
- cytotoxic potency ([11]; NCI-H2110 cells): highly potent
- IC50 ([11]; with 1 μM blocking anti-FOLR1 antibody (M9346A), read-out: IC50 NCI-H2110 +Block): 2 nM
- IC50 ([11]; without blocking antibody, read-out: IC50 NCI-H2110 −Block): 0.3 nM
- activity against the cell line ([12]; NCI-H2110): active
- IC50 ([12]; NCI-H2110, + unmodified huMOV19 (1 μM)): 1 nM
- IC50 ([12]; NCI-H2110, conjugate alone): 0.1 nM
